Assay outcomes from PubChem.
Hits are enriched below; roughly 1.5% of the tested compounds scored in any of these assays.
eIF4H inh: inhibitors of RNA binding by human eIF4H; Q15056; eIF4H fluorescence polarization binding assay; inhibition, % at 35 µM; 290,000 compounds, 0.94% hits;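 note: calls also rest on retests at 20 µM and on dose response follow-up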
PABP FP inh: PABP-poly(A) binding inhibition. P11940. PABP-poly(A) RNA binding, fluorescence polarization. calls only at 35 µM. 290,000 compounds, 1% hits. AID 2014;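 note: calls also rest on retests at 20 µM and on dose response follow-up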
UUG fidelity: modulators of start codon recognition fidelity in yeast; AID 602363; activity score, % at 18.7 µM; S. cerevisiae UUG-firefly luciferase reporter, luminescence/redox ratio; 0.13% of 350,000 active;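 active = replicate mean at a twofold rise or more, about +100% in these data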;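 note: firefly luciferase made from a UUG start codon reports start codon fidelity; reporter light over untreated wells divided by growth signal over untreated wells; some hits fall short of that in this replicate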
MLLE-PAM2 inh: inhibitors of microRNA-mediated deadenylation, human PABP1 MLLE binding; P11940; GST-MLLE / FITC-PAM2 fluorescence polarization; inhibition, % at 20 µM; 360,000 compounds, 0.36% hits; in the data active = inhibition above about 35%, passing the limit was not always enough;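 note: plate controls were DMSO wells with GST-MLLE for no effect and wells lacking GST-MLLE protein for full effect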
Pemphigus Ab inh: blocks pemphigus antibody binding to human desmoglein-3. AID 588358. DSG3-coupled beads, scFv-anti-DSG3-GFP binding, flow cytometry; active compounds read low. 310,000 compounds, 0.48% hits. P32926. binding (percent of control), % at 10 µM;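 active = binding more than 3 SD below its plate's average and above zero; inconclusive = below that plate limit but binding exactly zero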;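 note: hits lower antibody fragment binding to DSG3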
An asterisk follows results filed as active; i = inactive; ? = inconclusive; / = not tested or not shown; + = active, no number; ! = a repeat was not active. Unless noted, the rule behind the calls is not given here.

Codes – A = eIF4H inh; B = PABP FP inh; C = UUG fidelity; D = MLLE-PAM2 inh; E = Pemphigus Ab inh
1) O=C(OC1CCCCC1)c1ccc2c(c1)C1C=CCC1C(C(=O)O)N2 (configuration not stated)
  A = 92.8* | B = + | C = / | D = / | E = /

2) Cc1ccccc1-c1cnc2c(c1)C(=O)N([C@@H](C)CO)C[C@H](C)[C@H](CN(C)C(=O)c1ccc(F)cc1)O2
  A = / | B = / | C = 5.5 | D = / | E = /

3) CS(=O)(=O)N(Cc1ccccc1)c1ccc(C(=O)NCCSCc2ccco2)cc1
  A = 18.6 | B = i | C = -4.4 | D = 44.8* | E = /

4) CC(C)NC(=O)c1ccc(N(Cc2ccccc2)S(C)(=O)=O)cc1
  A = -4.0 | B = i | C = -12.8 | D = 9.0 | E = 88.0*

5) C[C@H](CO)N1C[C@H](C)[C@@H](CN(C)C(=O)CCCN(C)C)OCCCC[C@H](C)Oc2ccc(NS(=O)(=O)c3cccs3)cc2C1=O
  A = / | B = / | C = 10.1 | D = / | E = /

6) CCN(CC)c1ccc2cc(C(=O)Nc3cccnc3N3CCOCC3)c(=O)oc2c1
  A = 63.1* | B = + | C = / | D = / | E = /

7) CCN(CC)c1ccc2cc(C(=O)Nc3ccccn3)c(=O)oc2c1
  A = 121.7* | B = + | C = -24.0 | D = 16.3 | E = 86.3

8) COc1ccc(-c2nnc(COc3ccc4ccccc4c3)o2)cc1OC
  A = -7.7 | B = i | C = -4.7 | D = 1.1 | E = 100.8

9) COc1cc2ccccc2cc1-c1nnc(COc2ccccc2)o1
  A = -2.4 | B = i | C = -8.9 | D = 2.7 | E = 89.8*

10) O=C(N/N=C/c1cn(Cc2cccc(F)c2)c2ccccc12)c1cc(O)cc(O)c1
  A = 99.8* | B = + | C = -14.5 | D = -8.6 | E = ?

11) COC(=O)N/N=C/c1cn(Cc2c(Cl)cccc2Cl)c2ccccc12
  A = 0.7 | B = i | C = / | D = -5.8 | E = 81.2*

12) COC(=O)N/N=C/c1cn(Cc2ccccc2Cl)c2ccccc12
  A = 0.7 | B = i | C = / | D = 9.7 | E = 76.8

13) COc1ccc(S(=O)(=O)N(C)C[C@@H]2Oc3c(NS(=O)(=O)c4ccccc4)cccc3C(=O)N([C@H](C)CO)C[C@@H]2C)cc1
  A = / | B = / | C = 7.7 | D = / | E = /

14) O=C1/C(=C/c2ccc(O)cc2)SC(=S)N1CC1CCCO1 (configuration not stated)
  A = 96.5 | B = + | C = / | D = -128.0 | E = 93.5

15) C[C@H]1CN([C@@H](C)CO)C(=O)c2cc(C#CC3CCCCC3)cnc2O[C@@H]1CN(C)S(=O)(=O)c1ccccc1
  A = / | B = / | C = -4.1 | D = / | E = /

16) CN1CCN(c2c(F)cc3c(=O)c(C(=O)O)cn4c3c2SCC4)CC1
  A = 97.0*! | B = +! | C = -19.4 | D = 7.8 | E = 101.4

17) C[C@H]1COc2c(N3CCN(C)CC3)c(F)cc3c(=O)c(C(=O)O)cn1c23
  A = 1.1 | B = i | C = 4.8 | D = 1.6 | E = 93.3

18) CC1(OC(=O)CCc2ccccc2)C(=O)C=C2C=C(c3ccsc3)OC=C2C1=O (configuration not stated)
  A = 69.9* | B = + | C = / | D = / | E = /

19) CC1(OC(=O)CCc2ccccc2)C(=O)C=C2C=C(c3ccc(C#N)cc3)N(CC3CC3)C=C2C1=O (configuration not stated)
  A = 34.0 | B = i | C = -5.9 | D = 18.7 | E = 103.9

20) CC1(OC(=O)CCc2ccccc2)C(=O)C=C2C=C(c3ccc(C#N)cc3)N(C3CCCC3)C=C2C1=O (configuration not stated)
  A = 59.0 | B = + | C = -12.7 | D = 34.1 | E = 105.5

21) CC1(OC(=O)C2CCCC2)C(=O)C=C2C=C(c3ccsc3)OC=C2C1=O (configuration not stated)
  A = 39.7 | B = i | C = -19.4 | D = -45.8 | E = 91.8

22) COc1ccccc1NC(=O)N[C@@H]1CC[C@H](CC(=O)N2CCC(Cc3ccccc3)CC2)O[C@@H]1CO
  A = / | B = / | C = 28.0 | D = / | E = /

23) CCCCN(CC)c1nc(N)c(C#N)c(CC#N)c1C#N
  A = 39.1 | B = i | C = -12.0 | D = -22.0 | E = /

24) C=C(C)CN(CC)c1nc(N)c(C#N)c(CC#N)c1C#N
  A = 84.1* | B = + | C = -4.3 | D = 5.2 | E = 87.6

25) NS(=O)(=O)c1ccc(-c2ccc(/C=C3\SC(=S)N(C4CCS(=O)(=O)C4)C3=O)o2)cc1 (configuration not stated)
  A = ? | B = ? | C = / | D = -116.6 | E = 77.3*

26) COc1ccc(CN(C)C[C@H]2OCCCC[C@H](C)Oc3ccc(NC(=O)Nc4c(C)noc4C)cc3C(=O)N([C@H](C)CO)C[C@@H]2C)cc1
  A = / | B = / | C = 22.6 | D = / | E = /

27) COc1ccc(/C=C/C(=O)NC(=S)Nc2ccc(S(=O)(=O)Nc3nccnc3OC)cc2)cc1
  A = -2.7 | B = i | C = -11.3 | D = 38.2* | E = 109.5

28) COc1nccnc1NS(=O)(=O)c1ccc(NC(=S)NC(=O)c2cccc(F)c2)cc1
  A = -10.1 | B = i | C = / | D = 29.1 | E = 95.6

29) COc1nccnc1NS(=O)(=O)c1ccc(NC(=S)NC(=O)c2ccc(F)cc2)cc1
  A = -3.8 | B = i | C = -10.6 | D = 48.8* | E = 101.5

30) CCC(=O)Oc1ccc2c(c1)O/C(=C\c1ccco1)C2=O
  A = ? | B = ? | C = -7.5 | D = 56.5 | E = 94.4

The last 3 entries of the part above open the next one:
Codes – A = eIF4H inh; B = PABP FP inh; C = UUG fidelity; D = MLLE-PAM2 inh; E = Pemphigus Ab inh
28) COc1nccnc1NS(=O)(=O)c1ccc(NC(=S)NC(=O)c2cccc(F)c2)cc1
  A = -10.1 | B = i | C = / | D = 29.1 | E = 95.6

29) COc1nccnc1NS(=O)(=O)c1ccc(NC(=S)NC(=O)c2ccc(F)cc2)cc1
  A = -3.8 | B = i | C = -10.6 | D = 48.8* | E = 101.5

30) CCC(=O)Oc1ccc2c(c1)O/C(=C\c1ccco1)C2=O
  A = ? | B = ? | C = -7.5 | D = 56.5 | E = 94.4

31) Cc1cc(O)cc2c1C(=O)/C(=C/c1ccco1)O2
  A = 60.8* | B = + | C = / | D = -10.7 | E = 98.0

32) COCC(=O)N1CCCCN2[C@H](CO)[C@H](c3ccc(-c4ccc(F)cc4)cc3)[C@@H]2C1
  A = / | B = / | C = -9.4 | D = / | E = /

33) COc1ccccc1CNC(=O)COC(=O)c1ccc(S(=O)(=O)N2CCCCC2)cc1
  A = / | B = / | C = -6.1 | D = -4.8 | E = 81.0*

34) CC(=O)Nc1ccc(C(=O)OCC(=O)N(C)C2CCCCC2)cc1
  A = active | B = i | C = / | D = 2.5 | E = 109.0

35) CC(=O)Nc1ccc(C(=O)OCC(=O)c2ccc(S(=O)(=O)N3CCCCC3)cc2)cc1
  A = / | B = / | C = / | D = -12.5 | E = 28.7*

36) CC(=O)Nc1ccc(S(=O)(=O)N2CCC(C(N)=O)(N3CCCCC3)CC2)cc1
  A = -2.8 | B = i | C = -8.9 | D = 5.1 | E = 38.4*

37) O=C(C1CC1)N1CCCCN2[C@H](C1)[C@H](c1ccc(-c3ccncc3)cc1)[C@@H]2CO
  A = / | B = / | C = -4.0 | D = / | E = /

38) COc1ccc(N2C(=O)CC(C#N)=C2N)cc1
  A = 1.7 | B = i | C = / | D = 5.7 | E = 100.0

39) N#CC1=C(N)N(c2ccccc2)C(=O)C1
  A = 31.7 | B = + | C = -25.8 | D = -1.3 | E = 97.8

40) COc1ccc(NC(=O)N(C)C[C@@H]2Oc3ccc(NC(=O)Nc4cccc5ccccc45)cc3C(=O)N([C@@H](C)CO)C[C@H]2C)cc1
  A = / | B = / | C = -6.5 | D = / | E = /

41) Cc1ccc(NC(=O)c2ccc(S(=O)(=O)NCc3ccco3)cc2)cc1
  A = -12.1 | B = i | C = 9.1 | D = 0.1 | E = -4.6*

42) Cc1cc(C(=O)Nc2cccc3c2O[C@H](CN(C)C(=O)Nc2ccc(C(F)(F)F)cc2)[C@@H](C)CN([C@H](C)CO)C3=O)n(C)n1
  A = / | B = / | C = -2.4 | D = / | E = /

43) O=C(C[C@@H]1C=C[C@H](NS(=O)(=O)c2ccc(F)cc2)[C@@H](CO)O1)NC1CCC1
  A = / | B = / | C = 7.5 | D = / | E = /

44) COc1ccc(NC(=S)Nc2ccccc2)cn1
  A = ? | B = i | C = / | D = 25.4 | E = 97.7

45) CCCCNC(=S)Nc1ccc(OC)nc1
  A = ? | B = i | C = / | D = 41.5* | E = 103.2

46) CCC(=O)N1CC[C@H]2[C@H](CO)Nc3ccc(-c4ccc(OC)cc4)cc3[C@H]21
  A = / | B = / | C = -7.9 | D = / | E = /

47) CCCC(=O)N1C[C@H]2[C@@H](c3ccccc31)[C@H](CO)N2C(=O)CC1CC1
  A = / | B = / | C = -4.7 | D = / | E = /

48) Cc1ccc(-n2c(C)cc(C(=O)CN3CCOCC3)c2C)cc1C
  A = active | B = + | C = / | D = -5.5 | E = 103.5

49) CC(C)NC(=O)N(C)C[C@@H]1Oc2ncc(-c3ccccc3F)cc2C(=O)N([C@H](C)CO)C[C@@H]1C
  A = / | B = / | C = -1.0 | D = / | E = /

50) CCCC(=O)Nc1ccc2c(c1)C(=O)N(C)C[C@@H](OC)[C@@H](C)CN(C)[C@@H](C)CO2
  A = / | B = / | C = 1.9 | D = / | E = /

51) COc1ccc(OCCSCc2nnc(NC(=O)Nc3ccc(Cl)cc3)s2)cc1
  A = -2.6 | B = i | C = / | D = -20.9 | E = 97.4
